Hits are enriched below; roughly 0.24% of the tested compounds scored in any of these assays.
Eya2 inh: blocks the phosphatase activity of human Eya2. O00167. recombinant Eya2, OMFP fluorescence dephosphorylation (OMFP is methylfluorescein phosphate). 330,000 tested, 0.006% active. Potency, µM (doses to about 76.9 µM), most hits filed as inhibitors
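Eya2 (0.2 uM) preincubated 10 min at ambient with compound, then OMFP substrate added at 50 uM; 10 min reaction in 50 mM HEPES pH 7.5, 50 mM NaCl, 5 uM MgCl2, 0.05% BSA, 1 mM DTT. Fluorescence read at Ex 485/Em 525 nm.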
PTAP TSG101 blk: blocks PTAP/TSG101 interaction to inhibit HIV-1 budding. Fluorescence polarization, FITC-PTAP peptide / Tsg101 binding. 340,000 tested, under 10 active. Potency, µM (titrated, usually from 115 µM), actives largely listed as inhibitors; active = well fitted inhibition curve with a large enough effect in the main read-out, with a control signal flat, not every such curve was filed as active; inconclusive = small, poorly fitted or top-dose-only effect, or effect the other way, or a change in a side signal; inactive = no such curve, though single readings can be large or run the other way
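FP read-out: FITC-PTAP peptide, 50 nM final, binding Tsg101 binding domain, 10 uM final; 20 min, r.t.; 10 mM HEPES pH 7.5, 0.15 M NaCl, 0.01% Tween 20, 3 mM EDTA, 0.1 mM TCEP.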
GLS inh: glutaminase GLS (human) inhibition. O94925. GLS enzymatic activity, qHTS titration. Potency, µM (doses to about 45.5 µM), actives largely listed as inhibitors. 410,000 tested, 0.21% active. AID 624170
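Read-out is an Amplex red fluorescence increase coupled through glutamate oxidase and HRP, measured before and after 30 min room-temperature incubation. hKGA is in 45 mM KH2PO4 (pH 8.2) with 0.02% Tween-20; glutamine added as 1mM solution.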
PTHR1 ag: agonists of human PTHR1 parathyroid hormone receptor | Q03431 | HEK293 GP2 PTHR1 cells, GloSensor cAMP luminescence, 1 h | Potency, µM (doses to about 115 µM), usual class: activators | 410,000 tested, 0.075% active | AID 743266; note: nearly all actives have a fitted effect of over 55% in size
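HEK-293-derived GP2 cells expressing PTHR1 and a GloSensor cAMP reporter, 3,000/well, plated overnight, given luciferin plus IBMX (each 0.5 mM as added) for 1 h at 37 °C, then compound for 1 h at 37 °C. Luminescence was read after 15 min at room temperature.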
miR-21 reporter: miR-21 reporter, rising signal | HeLa miR-21 FLuc reporter, luciferase, 48 h | Potency, µM (top dose mostly 38.3 µM) | 340,000 tested, under 10 active | AID 2288; active = well fitted rising curve with a large enough effect; inconclusive = small, poorly fitted or top-dose-only effect; inactive = no such curve, though single readings can be large or run the other way;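 further: miR-21 action dims this reporter so a rising signal means less miR-21 action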
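HeLa cells endogenously expressing miR-21, stably carrying CMV-driven firefly luciferase with a downstream miR-21 binding site, 2000 cells/well. Titrations up to approximately 40 uM, 48 hours; luciferase luminescence read.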
USP2a inh: inhibitors of human ubiquitin-specific protease USP2a | USP2 core, Ub-CHOP2 coupled fluorogenic reporter, 485/531 | O75604 | 330,000 tested, 0.01% active | Potency, µM (titrated, usually from 38.3 µM), most hits filed as inhibitors | AID 463254
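USP2 core (10nM final) preincubated 30min RT with compound in 20mM Tris-HCl pH 8.0, 2mM CaCl2, 2mM beta-mercaptoethanol, 0.05% CHAPS; 25nM Ub-CHOP2 plus 25nM reporter substrate added, fluorescence (Ex485/Em531) read after 60min.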
Hits are given with their value; . = inactive; ? = inconclusive; / = no result. Unless noted, calls come from the whole dose curve; as a rule, active = well fitted curve in the direction sought with a large enough effect; inconclusive = small, poorly fitted or top-dose-only effect, or another doubt; inactive = no such curve, though single readings can be large; an effect the other way counts as inactive or inconclusive.

SMILES	Eya2 inh	PTAP TSG101 blk	GLS inh	PTHR1 ag	miR-21 reporter	USP2a inh
CCc1ccc(NC(=O)C(C)Sc2nc(-c3ccco3)c(C#N)c(=O)[nH]2)cc1 (configuration not stated)	.	.	20µM	.	.	.
O=C(NC(Cc1ccccc1)C(=O)O)/C(=C/c1ccco1)NC(=O)c1cccc(Br)c1 (configuration not stated)	.	.	18µM	.	.	.
O=C(O)COc1ccccc1/C=N/NC(=O)c1cc2ccccc2cc1O	.	.	.	25µM	.	.
O=C(O)COc1ccccc1/C=N/NC(=O)c1ccncc1	/	/	.	/	/	/
CCCc1ccc(-c2cc(NC(=O)CSc3n[nH]c(N)n3)n(-c3ccccc3)n2)cc1	.	.	.	16µM	.	.
CC(NC(=O)CSc1n[nH]c(N)n1)c1ccccc1 (configuration not stated)	.	.	.	.	.	.
c1ccc(SSc2ccccn2)nc1	/	.	10µM	.	/	/
Cc1ccc(O)c(NC(=S)NC(=O)C(C)C)c1	.	.	20µM	.	.	.
Cc1ccc(O)c(NC(=S)NC(=O)CC(C)C)c1	.	.	.	.	.	.
COc1ccc(CC(=O)NCCS(=O)(=O)N2CCN(c3ccccc3)CC2)cc1	.	.	.	.	/	.
COc1ccc(N2CCN(S(=O)(=O)CCNC(=O)Cc3ccc(-c4ccccc4)cc3)CC2)cc1	/	/	.	28µM	.	/
Cc1ccc(NC(=O)c2ccc(Cl)cc2Cl)c(C(=O)c2ccccc2)c1	/	/	.	.	.	/
COc1ccc(CCNC(=O)C2CCCN(c3nc4c(C)cc(C)cc4s3)C2)cc1OC (configuration not stated)	/	/	.	.	.	/
COc1ccc(-c2nc3ccc(C4=C(C)CC(=O)NN4)cc3[nH]2)cc1	/	/	32µM	/	/	/
CC(=O)C1=C(c2ccccc2)NC(=O)NC1c1ccc2c(c1)OCO2 (configuration not stated)	.	.	.	.	.	.
CC(=O)C1=C(c2ccccc2)NC(=S)NC1c1ccc(O)c(O)c1 (configuration not stated)	.	.	8.9µM	.	.	.
CC(=O)C1=C(c2ccccc2)NC(=O)NC1c1ccc(O)c(O)c1 (configuration not stated)	.	.	10µM	.	.	.
CC(=O)SCC(CC(=O)c1ccc(C)cc1)C(=O)O (configuration not stated)	/	/	.	/	/	/
CCc1ccc(NC(=O)Cn2c(=O)c(CNc3ccccc3)cc3cc(OC)c(OC)cc32)cc1	/	/	16µM	.	.	/
CCc1ccc(NCc2cc3cc4c(cc3n(CC(=O)Nc3ccccc3C)c2=O)OCCO4)cc1	/	/	11µM	.	.	/
CCc1ccc(NCc2cc3cc4c(cc3n(CC(=O)Nc3ccc(Cl)cc3)c2=O)OCO4)cc1	/	/	13µM	.	.	/
COc1cc2cc(CNc3ccccc3)c(=O)n(CC(=O)Nc3cc(C)cc(C)c3)c2cc1OC	/	/	?	.	.	/
Cc1cccc(OCc2ccc(-c3nc(C#N)c(NCc4cccnc4)o3)o2)c1	/	/	.	.	?	/
Cc1ccc(C)c(NC(=O)Cn2c(=O)n(CC3CCCO3)c(=O)c3ccccc32)c1 (configuration not stated)	/	/	.	.	.	/
C/C(CC(=O)Nc1ccc2ccccc2c1)=N\NC(=O)c1ccc(O)c(O)c1	.	.	6.3µM	.	.	.
SMILES	Eya2 inh	PTAP TSG101 blk	GLS inh	PTHR1 ag	miR-21 reporter	USP2a inh
C/C(CC(=O)Nc1ccc2ccccc2c1)=N\NC(=O)c1cnccn1	.	.	.	.	.	.
ClC(Cl)(Cl)c1nc2ccccc2n2nncc12	.	.	11µM	.	.	.
C#CC1(OC(C)=O)CCC2C3CCC4=CC(OC(C)=O)CCC4C3CCC21C (configuration not stated)	/	/	.	/	/	/
CN(C)[C@H]1C(=O)C(C(=O)NCN2CCCC2)=C(O)[C@]2(O)C(=O)C3=C(O)c4c(O)cccc4[C@@](C)(O)[C@H]3C[C@@H]12	/	/	5µM	/	/	/
CO/N=C(\C(=O)N[C@@H]1C(=O)N2C(C(=O)[O-])=C(C[n+]3cccc4c3CCCC4)CS[C@H]12)c1csc(N)n1	/	/	6.3µM	/	/	/
CO/N=C(/C(=O)N[C@@H]1C(=O)N2C(C(=O)O)=C(C[n+]3ccc(N)n3CCO)CS[C@H]12)c1csc(N)n1	/	/	.	/	/	/
CON=C(C(=O)NC1C(=O)N2C(C(=O)O)=C(CSc3nc(=O)c(=O)[nH]n3C)CSC12)c1csc(N)n1 (configuration not stated)	/	.	18µM	.	/	/
CCOc1ccc(NC(=O)CSC2=Nc3ccccc3C3=NC(CC(=O)NCc4ccccc4OC)C(=O)N23)cc1 (configuration not stated)	/	/	.	.	.	/
CC(=C/C(=O)O)/C=C/c1ccc(Cl)o1	.	.	18µM	.	.	.
CC(/C=C/c1ccc(C)o1)=C\C(=O)O	.	.	.	.	.	.
Cc1cccn2c(=O)cc(CSc3nnc(NC(=O)COc4ccccc4)s3)nc12	.	/	.	.	.	.
CCn1ccc2cc(S(=O)(=O)N3CCCN(C(=O)NCC(=O)OC)CC3)ccc21	/	/	.	.	.	/
CCc1nc(Nc2ccccc2O)c2oc3ccccc3c2n1	.	.	.	.	.	.
CCc1nc(Nc2ccc(O)cc2)c2oc3ccccc3c2n1	.	.	4.5µM	.	.	.
CC(C)CCn1c(=O)c2sccc2n2c(CCCC(=O)Nc3ccc(F)c(Cl)c3)nnc12	/	/	.	.	.	/
CCOC(=O)CC(NC(=O)CCc1c(C)nc2c(c(C)nn2-c2ccc(C)c(C)c2)c1C)c1ccc(C)cc1 (configuration not stated)	/	/	.	.	.	/
O=C1CC(C(=O)N2CCN(c3ccccc3O)CC2)CN1Cc1ccccc1 (configuration not stated)	.	.	5µM	.	/	.
O=C1CC(C(=O)N2CCN(c3ccccc3)CC2)CN1Cc1ccccc1 (configuration not stated)	.	.	.	.	/	.
CC(C)(C)c1nnc(NS(=O)(=O)c2ccccc2)s1	/	/	.	/	/	/
CCOC(=O)c1[nH]c2ccc(OC)cc2c1NS(=O)(=O)c1ccc(Cl)s1	.	.	7.1µM	.	.	.
COc1ccc2[nH]c(C(=O)O)c(NS(=O)(=O)c3ccc(Cl)s3)c2c1	.	.	.	.	.	.
CCOC(=O)N1CCN(c2cc(NCCC(=O)O)c3c4c(onc24)-c2ccccc2C3=O)CC1	?	?	18µM	.	.	?
O=C(O)C(Cc1ccccc1)n1cccc1 (configuration not stated)	.	.	13µM	.	.	.

Screens (PubChem)
